Measured values reported in patent US10689362B2, “Quinoxaline compounds as type III receptor tyrosine kinase inhibitors” (Development Center for Biotechnology, priority 2016, dated 2020).

Chains of the proteins cited; added tags and fusions are not shown. Residues count along the entry.
UniProt P07333, 20-972 limits assumed: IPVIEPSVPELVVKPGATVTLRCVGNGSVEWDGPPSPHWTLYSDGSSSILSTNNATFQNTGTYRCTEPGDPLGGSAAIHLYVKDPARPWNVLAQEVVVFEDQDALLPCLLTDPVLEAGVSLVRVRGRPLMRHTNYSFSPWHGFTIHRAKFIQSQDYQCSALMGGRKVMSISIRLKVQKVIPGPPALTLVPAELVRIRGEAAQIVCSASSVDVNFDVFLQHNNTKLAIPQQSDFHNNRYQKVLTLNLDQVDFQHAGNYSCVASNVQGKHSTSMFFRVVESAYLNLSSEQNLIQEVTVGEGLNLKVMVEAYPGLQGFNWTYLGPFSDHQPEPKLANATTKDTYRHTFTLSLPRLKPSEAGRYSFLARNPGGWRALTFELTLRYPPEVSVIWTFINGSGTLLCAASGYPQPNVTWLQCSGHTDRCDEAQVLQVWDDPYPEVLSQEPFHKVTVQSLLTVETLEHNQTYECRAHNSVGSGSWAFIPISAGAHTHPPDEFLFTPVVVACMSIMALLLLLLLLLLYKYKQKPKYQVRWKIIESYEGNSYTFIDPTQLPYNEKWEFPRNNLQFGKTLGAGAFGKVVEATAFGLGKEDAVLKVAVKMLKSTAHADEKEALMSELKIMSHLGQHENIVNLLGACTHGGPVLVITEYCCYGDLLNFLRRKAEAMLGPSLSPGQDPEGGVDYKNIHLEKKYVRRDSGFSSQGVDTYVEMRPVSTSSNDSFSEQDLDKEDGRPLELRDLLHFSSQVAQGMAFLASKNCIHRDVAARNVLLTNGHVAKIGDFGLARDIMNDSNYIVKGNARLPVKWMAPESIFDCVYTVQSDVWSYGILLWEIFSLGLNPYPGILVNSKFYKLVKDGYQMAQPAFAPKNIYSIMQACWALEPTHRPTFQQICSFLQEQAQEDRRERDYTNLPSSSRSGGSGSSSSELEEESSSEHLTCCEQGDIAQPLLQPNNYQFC
UniProt P10721, 26-976 limits assumed: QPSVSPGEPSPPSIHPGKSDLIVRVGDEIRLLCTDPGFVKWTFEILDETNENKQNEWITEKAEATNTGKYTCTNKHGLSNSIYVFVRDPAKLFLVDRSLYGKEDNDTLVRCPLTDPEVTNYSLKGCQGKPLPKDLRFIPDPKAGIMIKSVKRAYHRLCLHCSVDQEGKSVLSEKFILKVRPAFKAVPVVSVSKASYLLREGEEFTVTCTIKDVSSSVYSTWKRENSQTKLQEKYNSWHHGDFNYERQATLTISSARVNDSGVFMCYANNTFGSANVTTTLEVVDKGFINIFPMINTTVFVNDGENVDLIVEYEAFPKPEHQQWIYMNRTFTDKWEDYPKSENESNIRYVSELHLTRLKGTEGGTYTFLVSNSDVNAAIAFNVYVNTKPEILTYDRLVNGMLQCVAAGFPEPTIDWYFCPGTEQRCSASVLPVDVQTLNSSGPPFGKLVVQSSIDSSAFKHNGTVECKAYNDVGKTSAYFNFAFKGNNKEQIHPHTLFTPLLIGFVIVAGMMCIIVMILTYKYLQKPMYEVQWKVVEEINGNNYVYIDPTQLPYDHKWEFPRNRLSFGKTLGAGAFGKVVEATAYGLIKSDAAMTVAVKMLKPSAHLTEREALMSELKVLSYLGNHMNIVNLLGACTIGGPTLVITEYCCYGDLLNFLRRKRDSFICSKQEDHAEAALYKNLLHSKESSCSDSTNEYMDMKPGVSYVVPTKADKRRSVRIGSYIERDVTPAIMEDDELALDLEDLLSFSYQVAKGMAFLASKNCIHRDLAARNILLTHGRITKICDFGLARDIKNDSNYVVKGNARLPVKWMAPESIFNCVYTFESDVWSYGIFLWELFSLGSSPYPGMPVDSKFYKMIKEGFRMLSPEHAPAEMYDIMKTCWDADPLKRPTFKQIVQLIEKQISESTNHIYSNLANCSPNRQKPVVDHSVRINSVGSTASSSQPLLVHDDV
UniProt P36888, 27-993 limits assumed: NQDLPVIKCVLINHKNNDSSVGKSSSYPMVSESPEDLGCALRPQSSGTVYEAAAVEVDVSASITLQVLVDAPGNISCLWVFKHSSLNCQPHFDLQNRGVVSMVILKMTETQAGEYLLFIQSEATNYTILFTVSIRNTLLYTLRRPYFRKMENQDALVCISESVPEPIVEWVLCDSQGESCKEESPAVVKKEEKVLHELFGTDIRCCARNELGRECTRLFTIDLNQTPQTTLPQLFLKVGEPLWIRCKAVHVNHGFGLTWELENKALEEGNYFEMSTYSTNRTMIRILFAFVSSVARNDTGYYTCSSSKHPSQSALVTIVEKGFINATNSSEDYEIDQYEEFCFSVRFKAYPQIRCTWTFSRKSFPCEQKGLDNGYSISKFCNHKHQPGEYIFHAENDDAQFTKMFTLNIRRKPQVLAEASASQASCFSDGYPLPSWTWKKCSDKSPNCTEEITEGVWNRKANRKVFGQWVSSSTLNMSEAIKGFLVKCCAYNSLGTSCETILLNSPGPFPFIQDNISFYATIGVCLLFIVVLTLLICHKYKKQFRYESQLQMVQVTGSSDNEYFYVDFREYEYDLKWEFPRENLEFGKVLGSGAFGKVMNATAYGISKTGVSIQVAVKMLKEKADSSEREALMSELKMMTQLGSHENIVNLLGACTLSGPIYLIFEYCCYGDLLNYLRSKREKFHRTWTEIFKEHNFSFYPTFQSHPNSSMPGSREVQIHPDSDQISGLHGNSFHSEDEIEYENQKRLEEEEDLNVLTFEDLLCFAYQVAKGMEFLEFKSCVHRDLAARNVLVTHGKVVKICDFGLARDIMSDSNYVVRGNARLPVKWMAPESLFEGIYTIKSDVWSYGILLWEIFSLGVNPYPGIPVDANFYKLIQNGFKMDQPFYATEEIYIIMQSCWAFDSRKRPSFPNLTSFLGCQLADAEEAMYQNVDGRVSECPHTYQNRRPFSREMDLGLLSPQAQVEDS
UniProt P09619, 33-1106 limits assumed: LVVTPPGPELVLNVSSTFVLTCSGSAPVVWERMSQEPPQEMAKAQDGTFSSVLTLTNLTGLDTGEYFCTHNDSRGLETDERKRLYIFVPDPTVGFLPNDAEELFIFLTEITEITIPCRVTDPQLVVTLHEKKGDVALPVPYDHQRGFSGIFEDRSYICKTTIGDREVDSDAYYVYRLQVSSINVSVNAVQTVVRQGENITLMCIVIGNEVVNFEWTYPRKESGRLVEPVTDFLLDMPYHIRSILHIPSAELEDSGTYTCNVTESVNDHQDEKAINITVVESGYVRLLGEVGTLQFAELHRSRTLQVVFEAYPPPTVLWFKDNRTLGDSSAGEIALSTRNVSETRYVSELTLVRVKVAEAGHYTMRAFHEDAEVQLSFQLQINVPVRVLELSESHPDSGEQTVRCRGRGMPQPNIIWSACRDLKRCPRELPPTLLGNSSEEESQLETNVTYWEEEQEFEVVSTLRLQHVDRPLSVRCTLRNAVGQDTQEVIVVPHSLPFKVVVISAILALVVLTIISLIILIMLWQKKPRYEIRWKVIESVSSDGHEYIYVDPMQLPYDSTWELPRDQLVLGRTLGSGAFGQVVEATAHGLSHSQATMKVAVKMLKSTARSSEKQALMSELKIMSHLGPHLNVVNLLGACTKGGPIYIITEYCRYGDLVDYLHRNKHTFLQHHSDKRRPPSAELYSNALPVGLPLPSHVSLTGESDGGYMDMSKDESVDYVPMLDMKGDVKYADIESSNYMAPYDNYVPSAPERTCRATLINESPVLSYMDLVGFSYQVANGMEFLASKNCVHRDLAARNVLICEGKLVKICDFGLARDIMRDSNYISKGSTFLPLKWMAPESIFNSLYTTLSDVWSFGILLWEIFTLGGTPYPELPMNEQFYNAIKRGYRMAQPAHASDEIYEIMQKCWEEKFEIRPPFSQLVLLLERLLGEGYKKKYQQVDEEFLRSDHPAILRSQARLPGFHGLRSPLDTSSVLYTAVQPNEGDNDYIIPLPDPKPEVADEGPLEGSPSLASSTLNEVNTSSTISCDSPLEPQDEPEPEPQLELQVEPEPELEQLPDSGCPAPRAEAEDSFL

How the values were obtained:
CSF-1R kinase = CSF-1R kinase (Homo sapiens (Human), UniProt P07333); assay: CSF-1R kinase assay (AlphaScreen); format: biochemical; details: read-out: CSF-1R IC50; class symbol
c-KIT kinase = c-KIT kinase (Homo sapiens (Human), UniProt P10721); assay: c-KIT kinase assay (radiometric); details: read-out: c-KIT IC50; class symbol
FLT3 kinase = FLT3 kinase (Homo sapiens (Human), UniProt P36888); assay: FLT3 kinase assay (radiometric); details: read-out: FLT3 IC50; bound
PDGFRβ kinase = PDGFRβ kinase (Homo sapiens (Human), UniProt P09619); assay: PDGFRβ kinase assay (radiometric); format: biochemical; details: read-out: PDGFRβ IC50; bound
Protocol: Inhibition of PDGFRβ kinase activity by a test compound disclosed herein was estimated by radiometric assay. Standard assay conditions were 10 ng of recombinant PDGFRβ (SignalChem) with 2 μg of substrate Poly-(Glu 4:Tyr 1) (sigma) in the assay buffer in kinase reaction buffer (10 mM MOPS pH 7.0, 0.21 mM EDTA, 0.5% glycerol, 0.001% Brij-35, 0.01 2-mercaptoehtanol, 1 mg/ml BSA, 10 mM MgCl2, 10 mM MnCl2, 10 μM ATP, 0.1 μCi per well [^33P]-ATP), in the presence of test compound (diluted in final concentration of 4% DMSO) or DMSO control, with a final volume of 25 μl for 60 minutes at 30° C. The reaction was stopped by adding 5 μl of 3% phosphoric acid solution. Total reaction solution was then harvested onto a filter plate (UniFilter-96 GF/B, PerkinElmer), and washed 20 times for 5 min with dH2O. 30 μl of MicroScint™-20 Cocktail (PerkinElmer) was added to dried plate. The plate was sealed and counted using a TopCount scintillation detector (PerkinElmer). […] The IC50 values of quinoxaline compounds of this invention against PDGFRβ kinase were determined using the GraphPad Prism 5 software.
The IC50 values for selected quinoxaline compounds of this invention against CSF-1R, c-KIT, FLT3, and PDGFRβ are summarized in Table 3.

[1] = tested on: CSF-1-dependent M-NFS-60 mouse myeloid leukemia cell; assay: M-NFS-60 cell proliferation assay (CellTiter-96); details: read-out: M-NFS-60 IC50; Cytotoxicity, M-NFS-60 cells, 72 hours
[2] = tested on: MV4-11 human acute myeloid leukemia cell with FLT3-ITD mutation; assay: MV4-11 cell proliferation assay (CellTiter-96); details: read-out: MV4-11 IC50; Cytotoxicity, MV4-11 cells, 72 hours
[3] = tested on: Kasumi-1 human acute myeloid leukemia cell with c-KIT N822K activating mutation; assay: Kasumi-1 cell proliferation assay (CellTiter-96); details: read-out: Kasumi-1 IC50; Cytotoxicity, Kasumi-1 cells, 72 hours
[4] = tested on: THP-1 human acute monocytic leukemia cell harboring NRAS G12D mutation; assay: THP-1 cell proliferation assay (counter screen, CellTiter-96); details: read-out: THP-1 IC50; Cytotoxicity, THP-1 cells (counter screen), 72 hours

- IC50 (CSF-1R kinase): < 0.1 µM
- IC50 (c-KIT kinase): < 0.1 µM
- IC50 (FLT3 kinase): > 1 µM
- IC50 (PDGFRβ kinase): > 1 µM
Compound: COc1ccc(COc2ccc(Oc3ccc4ncc(N(C)C)nc4c3C#N)cc2OC)cc1
- IC50 [1]: < 0.3 µM
- IC50 [2]: > 10 µM
- IC50 [3]: 0.3 to 1 µM
- IC50 [4]: > 10 µM
